# ChEMBL document CHEMBL1955729, “N⁴-(3-Bromophenyl)-7-(substituted benzyl) pyrrolo[2,3-d]pyrimidines as potent multiple receptor tyrosine kinase inhibitors: design, synthesis, and in vivo evaluation” (Bioorg Med Chem, 2012)
# Sequences of proteins named here, by UniProt entry; tags and fusion partners are left off.
# UniProt P09619, whole entry: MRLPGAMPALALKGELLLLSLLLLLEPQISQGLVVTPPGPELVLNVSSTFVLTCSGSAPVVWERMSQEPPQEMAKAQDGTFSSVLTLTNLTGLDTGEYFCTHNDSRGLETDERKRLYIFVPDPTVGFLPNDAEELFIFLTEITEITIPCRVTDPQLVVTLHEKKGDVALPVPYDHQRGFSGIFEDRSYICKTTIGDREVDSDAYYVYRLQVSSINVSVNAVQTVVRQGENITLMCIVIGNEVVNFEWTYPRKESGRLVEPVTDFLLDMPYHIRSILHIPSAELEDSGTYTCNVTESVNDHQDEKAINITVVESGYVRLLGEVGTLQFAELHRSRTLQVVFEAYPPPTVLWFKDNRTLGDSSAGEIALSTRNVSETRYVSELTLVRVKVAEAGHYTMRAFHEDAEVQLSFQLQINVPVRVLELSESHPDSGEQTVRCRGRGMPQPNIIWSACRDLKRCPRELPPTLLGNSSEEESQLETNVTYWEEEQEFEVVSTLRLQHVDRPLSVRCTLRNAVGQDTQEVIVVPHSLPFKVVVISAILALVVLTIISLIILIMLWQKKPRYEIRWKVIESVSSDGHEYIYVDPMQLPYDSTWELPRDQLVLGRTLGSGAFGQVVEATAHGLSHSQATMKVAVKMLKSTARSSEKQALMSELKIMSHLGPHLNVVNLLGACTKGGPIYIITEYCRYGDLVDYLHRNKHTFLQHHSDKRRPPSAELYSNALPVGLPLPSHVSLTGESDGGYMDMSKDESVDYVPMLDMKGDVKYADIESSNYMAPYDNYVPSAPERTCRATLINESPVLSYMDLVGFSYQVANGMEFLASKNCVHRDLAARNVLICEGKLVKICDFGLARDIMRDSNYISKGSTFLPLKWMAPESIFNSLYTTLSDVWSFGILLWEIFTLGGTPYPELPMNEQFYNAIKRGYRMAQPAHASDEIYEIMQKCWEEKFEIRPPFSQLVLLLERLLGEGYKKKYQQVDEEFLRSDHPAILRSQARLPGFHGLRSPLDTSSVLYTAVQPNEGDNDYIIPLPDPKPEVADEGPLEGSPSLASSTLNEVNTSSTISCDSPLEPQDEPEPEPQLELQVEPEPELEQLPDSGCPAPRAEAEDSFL
# Target: Platelet-derived growth factor receptor beta (Homo sapiens, UniProt P09619)
smiles,measurement,value
Nc1nc(Nc2cccc(Br)c2)c2cc(Cc3ccc(-c4ccccc4)cc3)[nH]c2n1,IC50,> 50 µM
